## Measured properties of organic chemicals

From the experimental data distributed with OPERA 2.9.

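OPERA's authors assembled the values from existing databases and did not measure them anew. A listed value is a point estimate from one report or more. Method, purity and exact conditions of the single measurements are not given. A value may pool stereoisomers or salt forms, and the file does not say which form was measured. Some entries may be limits or estimates that an upstream database listed as plain numbers.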

Melting points are in °C. The octanol-water partition coefficient is given as log10; larger values mean a more lipophilic compound. Water solubility is log10 of mol/L, nominally at 25 °C; higher is more soluble. Vapor pressure is log10 of mmHg; the set covers 15 to 30 °C, mostly 20 to 25 °C. The unbound fraction in human plasma runs from 0 (all bound) to 1 (all free). "n/a" marks a cell with nothing listed here.

structure (SMILES)	name	melting point (°C)	logP	log S (log10 mol/L)	vapor pressure (log10 mmHg)	plasma fu
CCCCC(CC)CN(CCO)CC(CC)CCCC (stereo not given)	2-[Bis(2-ethylhexyl)amino]ethan-1-ol	n/a	n/a	-4.942	-3.523	n/a
CCNc1nc(CC)c(C(=O)NC(C#N)c2cccs2)s1 (stereo not given)	Ethaboxam	n/a	n/a	-4.41	-6.216	n/a
O=C1OC(=O)c2cc(-c3ccc4c(c3)C(=O)OC4=O)ccc21	5,5'-Bi-2-benzofuran-1,1',3,3'-tetrone	297.3	n/a	n/a	-7.214	n/a
C#CC1(OC(C)=O)CCCCC1	Cyclohexanol, 1-ethynyl-, 1-acetate	n/a	2.8	-2.352	-0.771	n/a
C=CC(=O)OCC(C)CC (stereo not given)	2-Propenoic acid, 2-methylbutyl ester	n/a	2.9	-2.653	0.114	n/a
CC/C=C\CCOC(=O)OC	(Z)-Hex-3-en-1-yl methyl carbonate	n/a	3	-3.07	-0.596	n/a
O=C(Sc1nnc(S)s1)c1ccccc1	n/a	226	n/a	n/a	-7.992	n/a
CCO[Si](CC(C)CC(C)(C)C)(OCC)OCC (stereo not given)	Silane, triethoxy(2,4,4-trimethylpentyl)-	n/a	n/a	-6.243	-1.259	n/a
CC(=O)OCC=C(C)C	3,3-Dimethylallyl acetate	n/a	2	-1.474	0.367	n/a
C=CCCC(=O)C1=CCCC(C)(C)C1	1-(5,5-Dimethyl-1-cyclohexen-1-yl)pent-4-en-1-one	n/a	n/a	-3.534	-1.998	n/a
C=Cn1cc[n+](C)c1.COS(=O)(=O)[O-]	3-Methyl-1-vinylimidazolium methyl sulfate	48.5	-3.45	n/a	n/a	n/a
O=S(=O)(O)C(S(=O)(=O)O)S(=O)(=O)O	Methanetrisulphonic acid	n/a	-2.56	-2.489	n/a	n/a
CCCS(=O)(=O)Nc1ccc(F)c(C(=O)c2cn(C(=O)c3c(Cl)cccc3Cl)c3ncc(Br)cc23)c1F	n/a	209	n/a	-6.044	n/a	n/a
c1ccc(COc2ccc3ccccc3c2)cc1	Benzyl 2-naphthyl ether	n/a	5	-6.938	-6.472	n/a
OCC(CO)N[C@H]1C[C@](O)(CO)[C@@H](O)[C@H](O)[C@H]1O	Voglibose	n/a	n/a	-0.148	n/a	0.86
N#CCN(CC#N)CCN(CC#N)CC#N	(Ethylenedinitrilo)tetraacetonitrile	n/a	n/a	-2.852	-5.502	n/a
Cc1c(C)c([N+](=O)[O-])c(C(C)(C)C)c([N+](=O)[O-])c1C	1-tert-Butyl-3,4,5-trimethyl-2,6-dinitrobenzene	n/a	4.3	-6.709	n/a	n/a
Cc1ccc(S(C)(=O)=O)cc1[N+](=O)[O-]	4-Methylsulfonyl-2-nitrotoluene	n/a	0.93	n/a	-6.648	n/a
CC(C)(C)c1ccc(C=O)cc1	4-tert-Butylbenzaldehyde	n/a	3.1	-3.109	-1.519	n/a
C=C(C)C(=O)OCCC(F)(F)C(F)(F)C(F)(F)C(F)(F)C(F)(F)C(F)(F)F	3,3,4,4,5,5,6,6,7,7,8,8,8-Tridecafluorooctyl methacrylate	-37	5.2	-6.535	-1.274	n/a
COc1cccc2nc3c4cccc5cccc(c(=O)n3c12)c54	n/a	253.6	4.8	-6.678	n/a	n/a
O=C(Nc1ccc(Cl)cc1)Nc1ccc(Cl)c(Cl)c1	Triclocarban	n/a	4.342	-5.704	n/a	n/a
CN(C)CCOC(=O)C(c1ccccc1)C1(O)CCCC1 (stereo not given)	Cyclopentolate	n/a	2.4	-2.288	n/a	n/a
O=S1(=O)CCCO1	1,3-Propane sultone	n/a	-0.28	n/a	-2.444	n/a
CC(C)(C1CCC(OCC2CO2)CC1)C1CCC(OCC2CO2)CC1 (stereo not given)	n/a	n/a	4	-3.747	n/a	n/a
Cc1c(N=Nc2ccc(Cl)c(Cl)c2)c(O)n(C)c(=O)c1C#N	C.I. Disperse Yellow 241	252.5	4.2	-6.926	n/a	n/a
O=C(c1ccccc1)c1ccc(-c2ccccc2)cc1	Methanone, [1,1'-biphenyl]-4-ylphenyl-	n/a	n/a	-6.545	-6.669	n/a
CC(=O)N[C@@H](CS)C(=O)O	N-Acetyl-L-cysteine	n/a	-0.6	n/a	-7.777	0.17
C[Si](Cl)(Cl)CCC(F)(F)C(F)(F)C(F)(F)C(F)(F)C(F)(F)C(F)(F)F	Dichloromethyl((perfluorohexyl)ethyl)silane	2.25	n/a	n/a	-3.523	n/a
CC(C)CCCCCOC(=O)CCC(=O)OCCCCCC(C)C	Diisooctyl succinate	-64	n/a	n/a	-4.021	n/a
C=CC(C)CCC=C(C)CCC=O (stereo not given)	4,8-Dimethyl-4,9-decadienal	n/a	4.5	-3.794	-1.905	n/a

4 of these entries, quoted again:

structure (SMILES)	name	melting point (°C)	logP	log S (log10 mol/L)	vapor pressure (log10 mmHg)	plasma fu
C=CC(=O)OCC(C)CC (stereo not given)	2-Propenoic acid, 2-methylbutyl ester	n/a	2.9	-2.653	0.114	n/a
COc1cccc2nc3c4cccc5cccc(c(=O)n3c12)c54	n/a	253.6	4.8	-6.678	n/a	n/a
CC(C)CCCCCOC(=O)CCC(=O)OCCCCCC(C)C	Diisooctyl succinate	-64	n/a	n/a	-4.021	n/a
CCO[Si](CC(C)CC(C)(C)C)(OCC)OCC (stereo not given)	Silane, triethoxy(2,4,4-trimethylpentyl)-	n/a	n/a	-6.243	-1.259	n/a